# Data published in patent US4346102A, “3H-Dihydrofuranone-2 derivatives and pharmaceutical use thereof” (Delalande S.A., priority 1979, dated 1982).
# Tests used:
# [1] = test system: monoamine oxidase type "A"; assay: Test C: inhibiting activity of monoamine oxidase type "A" in rat brain homogenates after oral administration (serotonine as substrate); type: in vivo; settings: 5 mg/kg p.o.
# [2] = test system: monoamine oxidase type "B"; assay: Test C: inhibiting activity of monoamine oxidase type "B" in rat brain homogenates after oral administration (phenylethylamine as substrate); type: in vivo; settings: 5 mg/kg p.o.
smiles,measurement,setting,value
"O=C(CCNNC(=O)c1ccncc1)NCc1ccccc1 [NIALAMIDE, reference compound]","Activity IMAO ""A"" (in words, across Max, 8 hrs, 24 hrs)",[1],Inactive
same,"Activity IMAO ""B"" (in words, across Max, 8 hrs, 24 hrs)",[2],Inactive
